These are literature values, as cited in patent US9713590B2, “Method for treatment of pain and inflammation” (CADILA HEALTHCARE LIMITED, priority 2011, dated 2017).

The conditions of the data set: after oral administration.

In the case of `O=C(O)Cc1ccccc1Nc1c(Cl)cccc1Cl` [Diclofenac], the hepatic first-pass metabolism is on record as 50%.
